# Test results as given in PubChem BioAssay AID624202 (National Center for Advancing Translational Sciences (NCATS), 2012).
# This is a selection; strong and weak results do not stand in their true shares. Active and inactive are the calls of the source. Calls follow the shape of the dose curve; as a rule, active = well fitted activation curve with a large enough effect; inconclusive = small, poorly fitted or top-dose-only effect; inactive = no such curve, though single readings can be large or run the other way.
# Experiment: qHTS Assay to Identify Small Molecule Activators of BRCA1 Expression; also: nearly all actives have a fitted effect of over 80% in size
# Details: MCF7-BRCA1-FFLuc reporter, luminescence, 48 h, scaled: vehicle 0%, 10 µM genistein 100%; at 46.1 µM (top of the series) unless noted
row,SMILES,activation
1,O=P1(N(CCCl)CCCl)OCCC2CCCCN21 (stereo unspecified),inactive: -10.1%
2,O=C(NC1CCS(=O)(=O)C1)NP(=S)(Oc1ccccc1)Oc1ccccc1 (stereo unspecified),inactive: 9.6%
3,CCNC(=S)/N=C(\N)N[N+](=O)[O-],inactive: 0%
4,Cc1ccc(NP(=O)(Oc2cccc(C)c2)Oc2cccc(C)c2)nc1,inactive: 7.38%
5,c1ccc(-c2nn[nH]n2)c(-c2nn[nH]n2)c1,inactive: -3.94%
6,O=c1c2cc([N+](=O)[O-])ccc2[nH]c2c([N+](=O)[O-])cc([N+](=O)[O-])cc12,inactive: -67.6%
7,CN(C)C(=O)Oc1noc2ccccc12,inactive: 0%
8,CC(NC(=O)COC(=O)C(O)(c1ccccc1)c1ccccc1)c1ccccc1 (stereo unspecified),inactive: -3.42%
9,Cc1ccccc1OP(=O)(Nc1ccccn1)Oc1ccccc1C,inactive: -17.3%
10,CC(=O)NC(SC(=S)N(CC(C)C)CC(C)C)C(Cl)(Cl)Cl (stereo unspecified),inactive: 0.974%
11,Cc1ccc(OP(=O)(Nc2ccccn2)Oc2ccc(C)cc2)cc1,inactive: -28.3%
12,COC(=O)c1cc2c(s1)N=C(c1ccccc1)N(C)P2(=O)N1CCOCC1 (stereo unspecified),inactive: -1.38%
13,CCC(=O)N1C2C3N(C(=O)CC)C1C1N(C(=O)CC)C(C(N1C(=O)CC)N3C(=O)CC)N2C(=O)CC,inactive: -23.8%
14,O=C(OC1CN2CCC1CC2)c1ccccc1 (stereo unspecified),inactive: 10.3%
15,CCc1cc(O)c([N+](=O)[O-])c(C)c1[N+](=O)[O-],inactive: -5.37%
16,CC(C)(C)C(=O)NC(Sc1ccccc1)C(Cl)(Cl)Cl (stereo unspecified),inactive: -0.958%
17,CCOc1ccc(C2=NCC(CBr)S2)cc1 (stereo unspecified),inactive: -5.09%
18,O=P1(Nc2nc3ccc(Cl)cc3s2)COc2ccccc2O1 (stereo unspecified),inactive: 61.8%
19,CC(=O)Nc1ccc(Oc2c([N+](=O)[O-])cc([N+](=O)[O-])cc2[N+](=O)[O-])cc1,inactive: -33.7%
20,CC(=O)Nc1ccc([As](=O)(O)O)c(O)c1,inactive: -12.5%
21,COC(=O)C1(C)COP(=O)(NCc2ccccc2)OC1 (stereo unspecified),inactive: -9.47%
22,CC(=O)c1ccc(N2CC2c2ccncc2)cc1 (stereo unspecified),inactive: -9.55%
23,N#C/C(=C\c1ccc(N(CCBr)CCBr)cc1)C(N)=O,inactive: -88.1%
24,C[C@H]1OP(=O)(Oc2ccccc2)C[C@@H]2O[C@@H]21 (stereo partly specified),inactive: 16.4%
25,C[C@@H]1C=CCP(=O)(Oc2ccccc2)O1 (stereo partly specified),inactive: 0%
26,Cc1ccccc1CN(C)C(=O)COC(=O)C(O)(c1ccccc1)c1ccccc1,inactive: -11.5%

row,SMILES,activation
1,O=P(Nc1nccs1)(c1ccccc1)c1ccccc1,inactive: -10.1%
2,CC(C)C(=O)NC(Sc1ccccc1)C(Cl)(Cl)Cl (stereo unspecified),inactive: 12.9%
3,C[C@H]1OP(=O)(Oc2ccccc2)[C@H](O)[C@H](O)[C@H]1N=[N+]=[N-] (stereo partly specified),inactive: -3.86%
4,O=P(Nc1nc2ccccc2s1)(c1ccccc1)c1ccccc1,inactive: 0%
5,COc1ccc(N)c([N+](=O)[O-])c1[N+](=O)[O-],inactive: -16.3%
6,Nc1ccc(CCCCOc2ccccc2)cc1,inactive: 65.3%
7,CN(C)C1(CNC(=O)c2ccc(Cl)c(S(N)(=O)=O)c2)CCCCC1,inactive: -7.48%
8,O=P(Nc1ccccn1)(c1ccc(Br)cc1)c1ccc(Br)cc1,inactive: -3.99%
9,C(Cc1nn[nH]n1)Cc1nn[nH]n1,inactive: -7.11%
10,Nc1ccc([As](=O)(O)c2ccc([N+](=O)[O-])cc2)cc1,inactive: 18.4%
11,O=C(OC1CN2CCC1CC2)c1cccc(Cl)c1 (stereo unspecified),inactive: -0.966%
12,CC(=O)NC(SC(=S)N(C)C)C(Cl)(Cl)Cl (stereo unspecified),inactive: -15.3%
13,O=[N+]([O-])c1ncn(CCn2cnc([N+](=O)[O-])n2)n1,inactive: 0.0766%
14,O=[N+]([O-])c1ccc(O)c(/C=N/Nc2ccc([N+](=O)[O-])cc2[N+](=O)[O-])c1,inactive: -14.9%
15,O=[As](O)(c1ccccc1)c1ccc(O)cc1,inactive: 0%
16,O=P(/N=c1/nc(-c2ccccc2)n(-c2ccccc2)s1)(Nc1ccccc1)Nc1ccccc1,inactive: 10.3%
17,O=C(Nc1cc([As](=O)(O)O)ccc1O)c1ccccc1,inactive: 33.5%
18,O=P1(N(CCCl)CCCl)OCCCS1 (stereo unspecified),inactive: 3.12%
19,COC(=O)C1(C)COP(=O)(Nc2ccccc2)OC1 (stereo unspecified),inactive: -2.91%
20,O=[N+]([O-])c1cccc(NC2=NCC(CBr)S2)c1 (stereo unspecified),inactive: -2.18%
21,O=C(O)CNc1ccc([As](=O)(O)O)cc1,inactive: 1.84%
22,CC(C)(C)C(=O)NC(Sc1ccncn1)C(Cl)(Cl)Cl (stereo unspecified),inactive: 8.57%
23,O=[N+]([O-])c1ncn(CCn2ncnc2[N+](=O)[O-])n1,inactive: -3.95%
24,CC(=O)N1C2C3N(C(C)=O)C1C1N(C(C)=O)C(C(N1C(C)=O)N3C(C)=O)N2C(C)=O,inactive: -2.03%
25,O=[N+]([O-])c1cccc2n[nH]nc12,inactive: -10.1%
26,O=[N+]([O-])c1cc([N+](=O)[O-])c(CCNc2ccccc2)c([N+](=O)[O-])c1,inactive: -63.7%

row,SMILES,activation
1,CCc1nc2c(n1)c1c(non1O)c1c2no[n+]1[O-],inactive: -96.8%
2,Cc1ccc(NP(=O)(Oc2ccccc2)Oc2ccccc2)nc1,inactive: 5.95%
3,COc1ccc(C2=NCC(CBr)S2)cc1 (stereo unspecified),inactive: -5.63%
4,CN(C)C(=O)OCCc1n(C)cc[n+]1C,inactive: 11.1%
5,CC(C)c1nc(Nc2ccccc2)n(P(=O)(N(C)C)N(C)C)n1,inactive: 0.742%
6,CC(C)=N/N=C(\N)N[N+](=O)[O-],inactive: 0.737%
7,CC1CCN(C(=O)Oc2c(Cl)cc(Cl)c3cccnc23)CC1,inactive: 31.4%
8,c1cc(-c2nn[nH]n2)ccc1-c1nn[nH]n1,inactive: 9.47%
9,Nc1ccc([As](=O)(O)c2ccc(N)cc2)cc1,inactive: -3.89%
10,CCN(/C(=N/P(=O)(N1CCOCC1)N1CCOCC1)N1CCOCC1)c1ccc(OC)cc1,inactive: 0.726%
11,Cc1ccc(OP(=O)(Nc2nccs2)Oc2ccc(C)cc2)cc1,inactive: -3.1%
12,COc1ccccc1OP(=O)(Nc1ccc(C)cn1)Oc1ccccc1OC,inactive: -6.67%
13,CN1CCCC(OC(=O)C(c2ccccc2)c2ccccc2)C1 (stereo unspecified),inactive: -25.8%
14,Clc1ccc(Cl)c(NC2=NCC(CBr)S2)c1 (stereo unspecified),inactive: -15.1%
15,NC(=O)c1cc([N+](=O)[O-])cc([N+](=O)[O-])c1N,inactive: -9.12%
16,O=[N+]([O-])c1cc2c(cc1[N+](=O)[O-])OCO2,inactive: -44.9%
17,Cc1ccc(N/C(=N/P(=O)(N2CCOCC2)N2CCOCC2)N2CCOCC2)cc1,inactive: 13.1%
18,CN(C(=O)Cc1ccc(Cl)c(Cl)c1)[C@H]1CCCC[C@H]1N1CCCC1,inactive: -3.21%
19,O=[N+]([O-])C1C(O)C(O)C([N+](=O)[O-])C(O)C1O (stereo unspecified),inactive: 3.46%
20,Nc1cc(N)c2nonc2c1[N+](=O)[O-],inactive: -1.41%
21,CC(C)CC(=O)NC(Sc1ccc(Cl)cc1)C(Cl)(Cl)Cl (stereo unspecified),inactive: -20.7%
22,O=C(NC(Sc1ccncn1)C(Cl)(Cl)Cl)c1ccccc1 (stereo unspecified),inactive: -7.71%
23,Oc1ccccc1CNc1ccccn1,inactive: 44.4%
24,CN(C(=O)Cc1ccc(Cl)c(Cl)c1)[C@H]1CCCC[C@@H]1N1CCCC1,inactive: 0%
25,Cc1ccc(NP(=O)(Oc2ccccc2F)Oc2ccccc2F)nc1,inactive: 13.6%
26,Cc1cc(SC(NC(=O)c2ccc(F)cc2)C(Cl)(Cl)Cl)ncn1 (stereo unspecified),inactive: -17.7%

row,SMILES,activation
1,CCOP(=O)(Nc1ccccc1)OCC,inactive: 9.92%
2,CCCC1OP(N)(=O)OCC1CC (stereo unspecified),inactive: -0.238%
3,CC(=O)Nc1ccc([As](=O)(O)O)cc1,inactive: -6.7%
4,O=C(O)c1ccccc1[As](=O)(O)O,inactive: -12.3%
5,O=P(Nc1nc2ccc(Cl)cc2s1)(c1ccccc1)c1ccccc1,inactive: -50%
6,CN(C)P(=O)(N(C)C)n1c(Nc2ccccc2)nnc1-c1ccccc1,inactive: 10.1%
7,CCN(N=Nc1nonc1N)c1nonc1N,inactive: 3.64%
8,Nc1cccc2ccc([As](=O)(O)O)cc12,inactive: -1.49%
9,Cc1ccc2nc3c(c(C)c2c1)CC(C(Cl)Cl)S3 (stereo unspecified),inactive: 15.3%
10,ClCCN(CCCl)c1ccc(CC2C=CC=C2)cc1,inactive: -7.48%
11,Cc1ccc(OP(=O)(Nc2ccc([N+](=O)[O-])cn2)Oc2ccc(C)cc2)cc1,inactive: 1.11%
12,[N-]=[N+]=NC1CCCCC1NC(=O)c1cc([N+](=O)[O-])cc([N+](=O)[O-])c1 (stereo unspecified),inactive: 0%
13,O=[N+]([O-])c1ccc(-c2cc([N+](=O)[O-])c(O)c([N+](=O)[O-])c2)cc1,inactive: -15%
14,COc1cc(C(=O)NCC2(N3CCOCC3)CCCCC2)ccc1OCC(C)C,inactive: 9.72%
15,C[As](=O)(O)c1cccc(C(=O)O)c1,inactive: -5.55%
16,O=[As](O)(c1ccc(O)cc1)c1ccccc1O,inactive: 0%
17,O=[N+]([O-])c1cc([N+](=O)[O-])c(-c2ccn[nH]2)s1,inactive: -95.1%
18,CC(C)NC(=O)NP(=O)(Oc1ccccc1)Oc1ccccc1,inactive: 3.86%
19,CCN(CC)C(=S)SC(NC=O)C(Cl)(Cl)Cl (stereo unspecified),inactive: -32.8%
20,O=C(OC1CN2CCC1CC2)c1cccc2[nH]cnc12 (stereo unspecified),inactive: -4.41%
21,COC(=O)C1(C)COP(=O)(N2CCCCCC2)OC1 (stereo unspecified),inactive: -0.0497%
22,CC(C)c1ccc(OP(=O)(Nc2ccccn2)Oc2ccccc2F)cc1 (stereo unspecified),inactive: 22.2%
23,ClCCSc1nnc(-c2cccnc2)o1,inactive: 64.9%
